Measured values taken from patent US20240245770A1, “COMPOSITIONS AND METHODS FOR TREATING NEUROMUSCULAR DISORDERS” (The Regents of the University of California, priority 2019, published 2024).

Tested on: oral squamous carcinoma stem cells (OSCSCs)
Assay: 51Cr release NK cytotoxicity of treated PBMCs against OSCSCs
Format: cell-based, human
Settings: for Cr release assay, NK cell mediated cytotoxicity: overnight treatment; for cytotoxicity of NK cells, Mean: Table 102; for NK cell cytotoxicity, Mean: Table 195
Procedure: The ^51Cr release assay was performed as described previously. Patient-derived OSCSCs were used as a specific and sensitive NK targets to assess NK cell-mediated cytotoxicity. Briefly, different numbers of effector cells were incubated with ^51Cr-labeled OSCSCs. After 4-hour incubation the supernatants were harvested from each sample and counted on a gamma counter. The percentage specific cytotoxicity was calculated using the following formula:
Lytic unit 30/10^6 is calculated by using the inverse of the number of effector cells needed to lyse 30% of tumor target cells×100.
(§1) PBMC were left untreated, or treated with IL-2 (1000 U/mL) or treated with the combination of IL-2 and anti-CD16 mAb (3 μg/ml), or IL-2+ anti-CD3/28 antibodies (25 μl/mL) as shown in the figure. After an overnight incubation, the NK cell mediated cytotoxicity was determined by the standard 4-hour chromium release assay using oral squamous carcinoma stem cells (OSCSCs) as targets. The lytic units 30/10^6 cells were determined using inverse number of NK cells required to lyse 30% of the target cells×100. No significant differences in primary NK cytotoxicity within PBMCs between the donors (FIG. 2B).
as §1, with “PBMC cytotoxicity. PBMC” for “PBMC”, “IL-2+anti-CD3/28” for “IL-2+ anti-CD3/28”, “μl/mL) and IL-2+sAJ2 (1:20 PBMC:sAJ2 ratio)” for “μl/mL)”, “cells×100 (Table 18).” for “cells×100. No significant differences in primary NK cytotoxicity within PBMCs between the donors (FIG. 2B).”

Recombinant human IL-2
Cr release assay, NK cell mediated cytotoxicity (H65 SM PBMC): 36.23 lytic units 30/10^6 cells
Cr release assay, NK cell mediated cytotoxicity (H66 JC (ALS) PBMC): 35.36 lytic units 30/10^6 cells
Cr release assay, NK cell mediated cytotoxicity (H67 MK PBMC): 44.41 lytic units 30/10^6 cells
PBMC cytotoxicity (H80 DM PBMC): 7.04 lytic units 30/10^6 cells
PBMC cytotoxicity (H81 JC (ALS) PBMC): 15.09 lytic units 30/10^6 cells
PBMC cytotoxicity (H82 TC (healthy twin) PBMC): 9.04 lytic units 30/10^6 cells
PBMC (Cr51) cytotoxicity (H84 JC (ALS) AM): 21.96 lytic units 30/10^6 cells
PBMC (Cr51) cytotoxicity (H85 TC (healthy twin) AM): 25.98 lytic units 30/10^6 cells
PBMC (Cr51) cytotoxicity (H86 JC (ALS) PM): 13.68 lytic units 30/10^6 cells
PBMC (Cr51) cytotoxicity (H87 TC (healthy twin) PM): 17.09 lytic units 30/10^6 cells
PBMC cytotoxicity (H88 JC (ALS) PBMC): 17.85 lytic units 30/10^6 cells
PBMC cytotoxicity (H89 TC (healthy twin) PBMC): 23.85 lytic units 30/10^6 cells
PBMC cytotoxicity, LU30 Averages (H90 JC (ALS) PBMC): 7.28 lytic units 30/10^6 cells
PBMC cytotoxicity, LU30 Averages (H91 TC (healthy twin) PBMC): 22.55 lytic units 30/10^6 cells
cytotoxicity of NK cells, Mean (H105 JC (ALS)): 15.37
cytotoxicity of NK cells, Mean (H106 TC (control twin)): 12.76
lytic units 30/10^6 cells, Mean (H131 JC): 29.22 lytic units 30/10^6 cells
lytic units 30/10^6 cells, Mean (H132 TC): 36.04 lytic units 30/10^6 cells
lytic units 30/10^6 cells, Mean (H133 WO): 54.49 lytic units 30/10^6 cells
NK cytotoxicity of PBMC, Mean (H160 JC PBMC): 3.93
NK cytotoxicity of PBMC, Mean (H161 TC PBMC): 3.71
NK cytotoxicity of PBMC, Mean (H162 WO PBMC): 32.75
NK cytotoxicity of PBMC, Mean (H165 RS PBMC): 80.29
NK cytotoxicity of PBMC, Mean (H169 JC PBMC): 34.90
NK cytotoxicity of PBMC, Mean (H170 TC PBMC): 24.21
NK cytotoxicity in PBMCs, Mean (H171 JC PBMC, ALS): 16.43
cytotoxicity of NK cells in PBMCs, Mean (H171 JC PBMC, ALS): 42.30
NK cytotoxicity in PBMCs, Mean (H172 TC PBMC, control twin): 33.37
cytotoxicity of NK cells in PBMCs, Mean (H172 TC PBMC, control twin): 31.50
NK cytotoxicity, Mean (H184 JC PBMC, Table 191): 38.83
NK cytotoxicity, Mean (H185 TC PBMC, Table 191): 22.48
NK cell cytotoxicity, Mean (H186 JC PBMC): 31.20
NK cell cytotoxicity, Mean (H187 TC PBMC): 6.37
NK cell cytotoxicity, Mean (H190 RS PBMC): 38.68
NK cytotoxicity, Mean (H194 JC PBMC, Table 201): 9.69
NK cytotoxicity, Mean (H195 RS PBMC, Table 201): 8.03
NK cytotoxicity, Mean (H196 TC PBMC, Table 201): 7.23
NK cytotoxicity, Mean (H197 YC PBMC, Table 201): 13.85
NK cytotoxicity, Mean (H198 MK PBMC, Table 201): 8.32
NK cytotoxicity, Mean (H202 JC PBMC, Table 218): 43.67
NK cytotoxicity, Mean (H203 TC PBMC, Table 218): 26.92
NK cytotoxicity, Mean (H204 RS PBMC, Table 218): 35.63
NK cytotoxicity, Mean (H211 JC PBMC (ALS patient)): 9.20
NK cytotoxicity, Mean (H212 TC PBMC (twin control)): 6.96
NK cytotoxicity, Mean (H213 JC PBMC (ALS patient)): 21.64
NK cytotoxicity, Mean (H214 TC PBMC (twin control)): 22.56
Cr release assay, NK cell mediated cytotoxicity (P66 LP PBMC): 61.31 lytic units 30/10^6 cells
PBMC cytotoxicity (P82 SS PBMC): 12.53 lytic units 30/10^6 cells
Lytic units, Mean (P153 PBMC): 31.23 Lu70/10^6
LU AVERAGE (PBMC H140 JC): 18.03 LU 30/106 cells
LU AVERAGE (PBMC H141 RS): 2.14 LU 30/106 cells
LU AVERAGE (PBMC H142 JS): 15.16 LU 30/106 cells
lytic units 30/10^6 cells, Mean (PBMC H143 JC): 20.96 lytic units 30/10^6 cells
lytic units 30/10^6 cells, Mean (PBMC H144 TC): 16.77 lytic units 30/10^6 cells
lytic units 30/10^6 cells, Mean (PBMC H145 WO): 11.70 lytic units 30/10^6 cells
lytic units 30/10^6 cells, Mean (PBMC H146 JC): 21.79 lytic units 30/10^6 cells
lytic units 30/10^6 cells, Mean (PBMC H147 TC): 12.29 lytic units 30/10^6 cells
lytic units 30/10^6 cells, Mean (PBMC H148 WO): 8.22 lytic units 30/10^6 cells
51Cr release PBMC Mean (PBMC of H102 JC): 44.25 lytic units 30/10^6 cells
51Cr release PBMC Mean (PBMC of H103 TC): 49.87 lytic units 30/10^6 cells
51Cr release PBMC Mean (PBMC of H104 RS (another patient with ALS)): 66.24 lytic units 30/10^6 cells
51Cr PBMC cytotoxicity, Mean (PBMC of H106 JC (ALS patient)): 16.36 lytic units 30/10^6 cells
PBMC cytotoxicity, Mean (PBMC of H109 RS1 (ALS patient, Pre-NAC)): 15.02 lytic units 30/10^6 cells
PBMC cytotoxicity, Mean (PBMC of H110 RS2 (ALS patient, Post-NAC)): 27.60 lytic units 30/10^6 cells
PBMC cytotoxicity, Mean (PBMC of H111 AK (control)): 26.01 lytic units 30/10^6 cells
PBMC cytotoxicity, Mean (PBMC of H117 JC (ALS)): 9.22 lytic units 30/10^6 cells
H117.1 JC PBMC, Mean (PBMC of H117.1 JC (ALS patient), Table 106): 3.93
PBMC cytotoxicity, Mean (PBMC of H118 TC (control twin)): 8.97 lytic units 30/10^6 cells
PBMC cytotoxicity, Mean (PBMC of H119 BM): 10.88 lytic units 30/10^6 cells
PBMC cytotoxicity, Mean (PBMC of H120 JC (ALS)): 20 lytic units 30/10^6 cells
PBMC cytotoxicity, Mean (PBMC of H121 TC (control twin)): 28.10 lytic units 30/10^6 cells
PBMC cytotoxicity, Mean (PBMC of H122 MV): 175.4 lytic units 30/10^6 cells
PBMC cytotoxicity, Mean (PBMC of P99 ME (control)): 17.22 lytic units 30/10^6 cells
